Measured values taken from publication PMC5979958 (Scientific Reports, 2018).

B1: MIF peptide 82–96 (peptide, UniProt P14174 82-96, looked up)
peptide: GLLAERLRISPDRVY
notes: source: SPOT synthesis, immobilised on a glass slide array
B2: MIF peptide 75–89 (peptide, UniProt P14174 75-89, looked up)
peptide: SYSKLLCGLLAERLR
notes: also called wild-type peptide 75–89; source: SPOT synthesis, immobilised on a glass slide array
B3: MIF peptide 78–92 (peptide, UniProt P14174 78-92, looked up)
peptide: KLLCGLLAERLRISP
notes: also called wild-type peptide 78–92; source: SPOT synthesis, immobilised on a glass slide array
B4: MIF peptide 84–98 (peptide, UniProt P14174 84-98, looked up)
peptide: LAERLRISPDRVYIN
notes: also called wild-type peptide 84–98; source: SPOT synthesis, immobilised on a glass slide array
B5: MIF peptide 86–100 (peptide)
peptide: ERLRISPDRVYINYY
notes: also called MIF(86–100); source: synthetic peptide, custom-synthesized by Peptide Specialty Laboratories (PSL, Heidelberg); on the array: SPOT synthesis
B6: MIF peptide 85–99 (peptide, UniProt P14174 85-99, looked up)
peptide: AERLRISPDRVYINY
notes: as for B1
B7: MIF peptide 71–90 (peptide, UniProt P14174 71-90, looked up)
peptide: AQNRSYSKLLCGLLAERLRI
notes: as for B1
B8: MIF peptide 73–90 (peptide, UniProt P14174 73-90, looked up)
peptide: NRSYSKLLCGLLAERLRI
notes: as for B1
B9: MIF peptide 74–89 (peptide, UniProt P14174 74-89, looked up)
peptide: RSYSKLLCGLLAERLR
notes: as for B1
B10: MIF peptide 76–90 (peptide)
peptide: YSKLLCGLLAERLRI
notes: also called MIF(76–90); source: SPOT synthesis, immobilised on a glass slide array; free peptide for chemotaxis custom-synthesized by Peptide Specialty Laboratories (PSL, Heidelberg)
B11: MIF peptide 75–90 (peptide, UniProt P14174 75-90, looked up)
peptide: SYSKLLCGLLAERLRI
notes: also called MIF(75–90); source: SPOT synthesis, immobilised on a glass slide array

Biological target: T1, biotinylated N-terminal peptide human CXCR4(1–27) (human, UniProt P61073 1-27, biotin introduced N-terminally following an amino-caproic acid (Aca) spacer)
T1 construct: chemokine receptor CXCR4, human, N-terminal residues 1–27; Probe in solution for all peptide spot arrays; also called biotin-CXCR4(1–27); biotinylated CXCR4 N-terminus; source: synthetic peptide (Fmoc-SPPS, HPLC purified)
Test: peptide or protein array; MIF peptides immobilised covalently on a glass slide (SPOT synthesis); probed with 200 µl biotinylated CXCR4(1–27) (10 µg/ml) in blocking buffer for 30 min, washed with TBS containing 0.1% Tween 20, developed with Cy5-streptavidin or HRP-streptavidin; background-corrected signal intensity
Conditions: both partners purified

Binder | binding result
B1 | binds
B2 | binds
B3 | binds
B4 | binds
B5 | binds
B6 | binds
B7 | binds
B8 | binds
B9 | binds
B10 | binds
B11 | binds
